Values after ≈ are worked out from the molar mass of the structure shown.
system: E. coli (wild type) DM4100; assay: MIC by broth microdilution, E. coli wild type; type: cell-based; settings: wild type DM4100, PMBN 8 μg/mL

SMILES	MIC E. coli +PMBN
Nc1ncc2cc(-c3c(Cl)cccc3-c3cccnc3)c(N)nc2n1 [4d, 6-[2-chloro-6-(3-pyridyl)phenyl]pyrido[2,3-d]pyrimidine-2,7-diamine]	0.5 mg/L (≈ 1.43 µM)
Nc1ncc2cc(-c3c(Cl)cccc3Cl)c(N3CCC(N)(CO)C3)nc2n1 (stereo not shown) [13c, [3-amino-1-[2-amino-6-(2,6-dichlorophenyl)pyrido[2,3-d]pyrimidin-7-yl]pyrrolidin-3-yl]methanol]	8 mg/L (≈ 19.7 µM)
NCC1CCN(c2nc3nc(N)ncc3cc2-c2c(Cl)cccc2Cl)C1 (stereo not shown) [13f, 7-[3-(aminomethyl)pyrrolidin-1-yl]-6-(2,6-dichlorophenyl)pyrido[2,3-d]pyrimidin-2-amine]	2 mg/L (≈ 5.14 µM)
NCC1CCN(c2nc3nc(N)ncc3cc2-c2c(Cl)cccc2Cl)CC1 [13g, 7-[4-(aminomethyl)-1-piperidyl]-6-(2,6-dichlorophenyl)pyrido[2,3-d]pyrimidin-2-amine]	4 mg/L (≈ 9.92 µM)
